Here are results for one compound from article PMC3525482 (Journal of inorganic biochemistry, 2012).

The chains behind the UniProt entries cited, without tags or fusion partners. Residues count along the entry.
UniProt Q9GZT9, 177-426: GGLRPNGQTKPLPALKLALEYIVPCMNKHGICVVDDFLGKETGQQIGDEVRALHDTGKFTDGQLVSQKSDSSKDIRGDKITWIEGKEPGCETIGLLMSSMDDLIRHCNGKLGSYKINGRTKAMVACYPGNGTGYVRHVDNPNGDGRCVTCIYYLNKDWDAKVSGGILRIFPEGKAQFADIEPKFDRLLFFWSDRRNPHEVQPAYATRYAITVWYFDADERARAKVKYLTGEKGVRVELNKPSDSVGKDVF

The assay concerns the target PHD2 (Homo sapiens, UniProt Q9GZT9). Kind of assay: PHD2 activity assay, Michaelis constant for αKG. The assay is classed as biochemical. The conditions noted are these: read-out: KM (Michaelis constant for αKG), PHD2.

SMILES strings stand for the structures.

As to `O=C(O)CCC(=O)C(=O)O` [αKG, alpha-ketoglutarate], the Km (commonly the substrate concentration at which the rate is half of its maximum) worked out at 7 ± 2.5 µM.
